{"source": "patent US6548307B2", "about": "“Determination of logP coefficients via a RP-HPLC column” (Pfizer Inc., priority 2000, dated 2003)", "origin": "cited, not measured here", "conditions": "Shake-flask data from literature references; cited from earlier work", "data": [{"smiles": "c1ccc2ccccc2c1", "note": "[Naphthalene]", "values": [{"measurement": "logPoct", "value": 3.37}]}]}
